From PubChem
eIF4H inh: inhibitors of RNA binding by human eIF4H; actives 0.94% (n = 290,000); AID 2012; inhibition, % at 35 µM; Q15056; eIF4H fluorescence polarization binding assay;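 note: calls also rest on retests at 20 µM and on dose response follow-up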
DSG3 Ab inh: blocks pemphigus antibody binding to human desmoglein-3. P32926. DSG3-coupled beads, scFv-anti-DSG3-GFP binding, flow cytometry; stronger effect = lower value. binding (percent of control), % at 10 µM. actives 0.48% (n = 310,000);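 active = binding more than 3 SD below its plate's average and above zero; inconclusive = below that plate limit but binding exactly zero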;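 note: hits lower antibody fragment binding to DSG3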
Yeast UUG start: modulators of start codon recognition fidelity in yeast. S. cerevisiae UUG-firefly luciferase reporter, luminescence/redox ratio. activity score, % at 18.7 µM. 0.13% of 350,000 active. AID 602363;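 active = replicate mean at a twofold rise or more, about +100% in these data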;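 also: firefly luciferase made from a UUG start codon reports start codon fidelity; reporter light over untreated wells divided by growth signal over untreated wells; some hits fall short of that in this replicate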
PABP polyA inh: blocks human PABP binding to poly(A) RNA | P11940 | fluorescence polarization | calls only at 35 µM | actives 1% (n = 290,000);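 note: calls also rest on retests at 20 µM and on dose response follow-up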
PABP1 MLLE inh: inhibitors of microRNA-mediated deadenylation, human PABP1 MLLE binding | P11940 | GST-MLLE / FITC-PAM2 fluorescence polarization | inhibition, % at 20 µM | actives 0.36% (n = 360,000) | AID 588489; in the data active = inhibition above about 35%, passing the limit was not always enough;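 note: plate controls were DMSO wells with GST-MLLE for no effect and wells lacking GST-MLLE protein for full effect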
An asterisk follows results filed as active; i = inactive; ? = inconclusive; nt = no result given; + = active, no number. Compounds with a hit are over-represented: about 1.5% of the library has one in this group of screens. Unless noted, the rule behind the calls is not given here.

#1 C[C@H](CO)N1C[C@H](C)[C@@H](CN(C)C)Oc2ccc(NS(C)(=O)=O)cc2C1=O
#2 CO[C@@H]1CN(C)C(=O)c2ccc(NC(C)=O)cc2OC[C@@H](C)N(Cc2cc(-c3ccccc3)on2)C[C@H]1C
#3 Cc1ccc(CCNC(=O)CCS(=O)(=O)c2ccc3nc(C)sc3c2)cc1
#4 Cc1cccc(CCNC(=O)CCS(=O)(=O)c2ccc3nc(C)sc3c2)c1
#5 O=c1[nH]c2ccc(NC(=S)Nc3ccccc3Cl)cc2[nH]1
#6 CCC(=O)N1[C@H](CO)[C@H](c2ccc(C3=CCCC3)cc2)[C@@H]1CN(C)C(C)=O
#7 CC1=NNC(=O)C1CC(=O)N/N=C/C(C)=C/c1ccccc1 (configuration not stated)
#8 COc1ccc(NC(=O)O[C@H](c2ccc(OC)c(O)c2)[C@@H](CCO)OC)cc1

| assay / compound | 1 | 2 | 3 | 4 | 5 | 6 | 7 | 8 |
| --- | --- | --- | --- | --- | --- | --- | --- | --- |
| eIF4H inh | nt | nt | -6 | 6 | -4 | nt | 73 | nt |
| DSG3 Ab inh | nt | nt | -11* | 113 | 108 | nt | 114 | nt |
| Yeast UUG start | 10 | 6 | -14 | -13 | -29 | 9 | nt | 5 |
| PABP polyA inh | nt | nt | i | i | i | nt | + | nt |
| PABP1 MLLE inh | nt | nt | 9 | 11 | 38* | nt | -4 | nt |

#9 C[C@H](CO)N1C[C@H](C)[C@H](CN(C)C(=O)Nc2ccc(F)cc2)OCCCC[C@H](C)Oc2ccc(NC(=O)NC3CCCCC3)cc2C1=O
#10 C[C@@H]1CN([C@@H](C)CO)C(=O)c2cc(NS(C)(=O)=O)ccc2O[C@@H](C)CCCCO[C@@H]1CN(C)Cc1ccc2c(c1)OCO2
#11 Nc1nnc(CC(=O)N/N=C/c2ccc(-c3ccccc3)o2)s1
#12 O=C(Cc1nnc(NC(=O)c2ccccc2)s1)N/N=C/c1cccc(O)c1
#13 O=C(Cc1nnc(NC(=O)c2ccccc2)s1)N/N=C/c1ccco1
#14 CC1(c2ccc([N+](=O)[O-])cc2)Nc2ccccc2S1 (configuration not stated)
#15 C[C@@H]1CN([C@@H](C)CO)C(=O)c2cc(NS(=O)(=O)c3cn(C)cn3)ccc2O[C@@H]1CN(C)Cc1ccc(C(=O)O)cc1
#16 C[C@H](CO)N1C[C@H](C)[C@H](CN(C)C)Oc2ncc(-c3cccnc3)cc2C1=O

| assay / compound | 9 | 10 | 11 | 12 | 13 | 14 | 15 | 16 |
| --- | --- | --- | --- | --- | --- | --- | --- | --- |
| eIF4H inh | nt | nt | 82 | -5 | 82 | 1 | nt | nt |
| DSG3 Ab inh | nt | nt | 88 | 98 | 99 | 97 | nt | nt |
| Yeast UUG start | -4 | 1 | nt | -3 | 5 | -9 | -20 | -6 |
| PABP polyA inh | nt | nt | + | i | + | i | nt | nt |
| PABP1 MLLE inh | nt | nt | -21 | -32 | -13 | 42* | nt | nt |

#17 CCOc1ccc(C2C(C#N)=C(N)Oc3cc(C)n(Cc4ccco4)c(=O)c32)cc1OC (configuration not stated)
#18 Cc1cc2c(c(=O)n1Cc1ccco1)C(c1cccnc1)C(C#N)=C(N)O2 (configuration not stated)
#19 Cc1noc(C)c1S(=O)(=O)Nc1ccc2c(c1)C(=O)N([C@H](C)CO)C[C@H](C)[C@H](CN(C)S(=O)(=O)c1cn(C)cn1)O2
#20 c1ccc(Cn2ccc(-c3cnc(-c4ccccc4)s3)n2)cc1
#21 C[C@@H]1CN([C@@H](C)CO)C(=O)c2cc(NC(=O)CCC(F)(F)F)ccc2O[C@H]1CN(C)CC1CC1
#22 C[C@@H]1CN([C@@H](C)CO)C(=O)c2cc(-c3cccc(F)c3)cnc2O[C@H]1CN(C)C(=O)C1CCCCC1
#23 COc1ccc(Nc2nc(N)nc(CSc3nccn3C)n2)cc1
#24 CC(C)NC(=O)N(C)C[C@H]1OCCCC[C@@H](C)Oc2ccc(NS(=O)(=O)c3ccc(F)cc3)cc2C(=O)N([C@H](C)CO)C[C@H]1C

| assay / compound | 17 | 18 | 19 | 20 | 21 | 22 | 23 | 24 |
| --- | --- | --- | --- | --- | --- | --- | --- | --- |
| eIF4H inh | 9 | 124* | nt | 93* | nt | nt | 90* | nt |
| DSG3 Ab inh | 107 | nt | nt | 113 | nt | nt | 98 | nt |
| Yeast UUG start | 2 | -11 | 2 | nt | 10 | 17 | nt | 6 |
| PABP polyA inh | i | + | nt | i | nt | nt | i | nt |
| PABP1 MLLE inh | 12 | 3 | nt | -6 | nt | nt | 15 | nt |

Some values from the list:
Reading of cpd 20 under eIF4H inh: 93*
Reading of cpd 7 under PABP1 MLLE inh: -4

Additional records
#25 O=C(NN=C1CCN(Cc2ccccc2)CC1)c1ccccc1O
#26 O=C(NN=C1CCN(Cc2ccccc2)CC1)c1cc2ccccc2cc1O
#27 CCOC(=O)Cn1c(=NC(=O)c2cccs2)sc2cc(C(=O)OC)ccc21
#28 CCOC(=O)c1ccc2c(c1)sc(=NC(=O)c1ccco1)n2CCOC
#29 COCC(=O)N1C[C@H](C)[C@@H](OC)CN(C)C(=O)c2cc(NC(=O)NC(C)C)ccc2OC[C@H]1C
#30 O=C(Cc1cnn(-c2ccccc2)c1)c1ccc(O)c(O)c1O
#31 CCc1cc(C(=O)Cc2cnn(-c3ccccc3)c2)c(O)cc1O
#32 O=S(=O)(c1ccc(F)cc1)N1CCCCN2[C@@H](CO)[C@H](c3ccc(C#CC4CCCC4)cc3)[C@@H]2C1

| assay / compound | 25 | 26 | 27 | 28 | 29 | 30 | 31 | 32 |
| --- | --- | --- | --- | --- | --- | --- | --- | --- |
| eIF4H inh | -7 | 97* | 4 | -8 | nt | 86* | -6 | nt |
| DSG3 Ab inh | 113 | 93 | 18* | 66 | nt | 98 | 97 | nt |
| Yeast UUG start | nt | nt | nt | -1 | 0 | -24 | 0 | -6 |
| PABP polyA inh | i | + | i | i | nt | + | i | nt |
| PABP1 MLLE inh | 3 | 4 | -7 | -19 | nt | 21 | 4 | nt |

#33 CCOc1ccc(C(=O)CC(Sc2ccc(C)cc2)C(=O)O)cc1 (configuration not stated)
#34 O=C(CC(Sc1ccc(Br)cc1)C(=O)O)c1ccc(F)cc1 (configuration not stated)
#35 Cc1ccc(S(=O)(=O)N(C)C[C@H]2Oc3c(NS(=O)(=O)c4cccs4)cccc3C(=O)N([C@H](C)CO)C[C@@H]2C)cc1
#36 O=C(C[C@@H]1CC[C@H]2[C@@H](COC[C@@H](O)CN2S(=O)(=O)c2cccc(Cl)c2)O1)N1CCOCC1
#37 Cc1ccccc1-c1nnc2s/c(=C\c3ccc(N(C)C)cc3)c(=O)n12
#38 CC1=NN(Cc2ccccc2)C(=O)/C1=C\c1ccc(N(C)C)cc1
#39 C[C@@H]1CCCCO[C@H](CN(C)C(=O)Nc2ccc3c(c2)OCO3)[C@@H](C)CN([C@@H](C)CO)C(=O)c2cc(NC(=O)CCCN(C)C)ccc2O1
#40 Cc1ccc(-c2cc(C(=O)Nc3c(C)n(C)n(-c4ccccc4)c3=O)[nH]n2)c(O)c1

| assay / compound | 33 | 34 | 35 | 36 | 37 | 38 | 39 | 40 |
| --- | --- | --- | --- | --- | --- | --- | --- | --- |
| eIF4H inh | 5 | -2 | nt | nt | 82* | -26 | nt | -3 |
| DSG3 Ab inh | 103 | 103 | nt | nt | nt | 98 | nt | -21* |
| Yeast UUG start | -25 | -17 | -6 | 6 | nt | nt | 4 | 7 |
| PABP polyA inh | i | i | nt | nt | + | i | nt | i |
| PABP1 MLLE inh | 35 | 39* | nt | nt | nt | -25 | nt | -14 |

Limited to Yeast UUG start and eIF4H inh, for some of the entries so far:
nr | SMILES | Yeast UUG start | eIF4H inh
36 | O=C(C[C@@H]1CC[C@H]2[C@@H](COC[C@@H](O)CN2S(=O)(=O)c2cccc(Cl)c2)O1)N1CCOCC1 | 6 | nt
33 | CCOc1ccc(C(=O)CC(Sc2ccc(C)cc2)C(=O)O)cc1 (configuration not stated) | -25 | 5
40 | Cc1ccc(-c2cc(C(=O)Nc3c(C)n(C)n(-c4ccccc4)c3=O)[nH]n2)c(O)c1 | 7 | -3

(listing goes on)
#41 C[C@H](CO)N1C[C@H](C)[C@H](CN(C)Cc2ccc(C(F)(F)F)cc2)OCCCC[C@H](C)Oc2ccc(NC(=O)c3ccccc3)cc2C1=O
#42 COC(=O)c1ccc(N(CC(=O)NC2CCCCC2)C(=O)CNC(=O)c2ccco2)cc1
#43 CC(=O)c1ccc(N(CC(=O)NC2CCCCC2)C(=O)CNC(=O)c2ccco2)cc1
#44 Cc1ccc(F)cc1S(=O)(=O)N[C@@H]1CCN(C(=O)c2ccc(OC(C)C)cc2)C1
#45 Cc1cc(C)nc(NN2C(=O)/C(=C/c3ccc(O)cc3)SC2=S)n1
#46 O=C(NN1C(=O)/C(=C/c2ccc(O)cc2)SC1=S)c1ccccc1O
#47 C[C@H](CO)N1C[C@H](C)[C@@H](CN(C)C(=O)Cc2ccncc2)Oc2cc(C#CC3CCCC3)ccc2S1(=O)=O
#48 CCOc1ccc(-c2nc(N)ncc2Oc2ccccc2Br)c(O)c1
#49 CCOc1ccc(-c2nc(N)ncc2Oc2cccc(OC)c2)c(O)c1

| assay / compound | 41 | 42 | 43 | 44 | 45 | 46 | 47 | 48 | 49 |
| --- | --- | --- | --- | --- | --- | --- | --- | --- | --- |
| eIF4H inh | nt | 2 | -9 | nt | ? | 63 | nt | 2 | -2 |
| DSG3 Ab inh | nt | 109 | 37* | nt | 99 | 95 | nt | 23* | 101 |
| Yeast UUG start | 19 | -24 | -9 | 12 | -19 | -5 | 23 | -19 | -12 |
| PABP polyA inh | nt | i | i | nt | + | + | nt | i | i |
| PABP1 MLLE inh | nt | -5 | -2 | nt | -125 | -148 | nt | 2 | -1 |
